Results as given in patent US20210161894A1, “Compositions and Methods for Modulating Liver Endothelial Cell Fenestrations” (priority 2017, published 2021).

System: isolated LSECs (liver sinusoidal endothelial cells)
Experiment: SEM of fenestrations in isolated LSECs from young and old mice after 30 min drug treatment (second Example 7)
Type: cell-based
Settings: old mice
Protocol: 3-4 and 18-24 month old male C57/B16 mice were obtained from the Animal Resource Centre in Perth, Western Australia. Animals were housed at the ANZAC Research Institute animal house on a 12 hour light/dark cycle and provided with ad libitum access to food and water. Mice were not fasted prior to euthanasia by a single intraperitoneal injection with 100 mg/kg ketamine and 10 mg/kg xylazine in saline. The study was approved by the Animal Welfare Committee of the Sydney Local Health District and was performed in accordance with the Australian Code of Practice for the care and use of animals for scientific research (AWC 2016/009). All information provided accords with the ARRIVE guidelines.
As described previously (Cogger et al. J e52698, 2015 https://dx.doi.org/10.3791/52698), mouse LSEC isolation was performed by perfusion of the liver with collagenase. Non-parenchymal cells were removed by a two-step Percoll gradient and Kupffer cells were removed by selective adherence to plastic. LSECs (seeded at 0.5×10^6 cells/cm2) were cultured (37° C., 5% CO2) in serum free RPMI-1640 for 3.5 hours before use.
Cells were treated with various agents for 30 minutes to determine effects on fenestrations. All agents were dissolved in serum-free RPMI media. All experiments were performed in triplicate for both young and old mice. […]

CCC(C)(C)C(=O)O[C@H]1C[C@@H](C)C=C2C=C[C@H](C)[C@H](CC[C@@H]3C[C@@H](O)CC(=O)O3)[C@H]21 [Simvastatin, simvastatin]
Porosity (0.1 μg/ml): 3.56 ± 1.75% | Porosity (1 μg/ml): 3.54 ± 1.86%
